Experimental data from US8901140B2, “6-amino quinazoline or 3-cyano quinoline derivatives, preparation methods and pharmaceutical uses thereof” (Jiangsu Hengrui Medicine Co., Ltd., priority 2009, dated 2014).

Amino acid sequences for entries named in this document (tags omitted). Residues count along the entry.
UniProt P00533, 25-1210: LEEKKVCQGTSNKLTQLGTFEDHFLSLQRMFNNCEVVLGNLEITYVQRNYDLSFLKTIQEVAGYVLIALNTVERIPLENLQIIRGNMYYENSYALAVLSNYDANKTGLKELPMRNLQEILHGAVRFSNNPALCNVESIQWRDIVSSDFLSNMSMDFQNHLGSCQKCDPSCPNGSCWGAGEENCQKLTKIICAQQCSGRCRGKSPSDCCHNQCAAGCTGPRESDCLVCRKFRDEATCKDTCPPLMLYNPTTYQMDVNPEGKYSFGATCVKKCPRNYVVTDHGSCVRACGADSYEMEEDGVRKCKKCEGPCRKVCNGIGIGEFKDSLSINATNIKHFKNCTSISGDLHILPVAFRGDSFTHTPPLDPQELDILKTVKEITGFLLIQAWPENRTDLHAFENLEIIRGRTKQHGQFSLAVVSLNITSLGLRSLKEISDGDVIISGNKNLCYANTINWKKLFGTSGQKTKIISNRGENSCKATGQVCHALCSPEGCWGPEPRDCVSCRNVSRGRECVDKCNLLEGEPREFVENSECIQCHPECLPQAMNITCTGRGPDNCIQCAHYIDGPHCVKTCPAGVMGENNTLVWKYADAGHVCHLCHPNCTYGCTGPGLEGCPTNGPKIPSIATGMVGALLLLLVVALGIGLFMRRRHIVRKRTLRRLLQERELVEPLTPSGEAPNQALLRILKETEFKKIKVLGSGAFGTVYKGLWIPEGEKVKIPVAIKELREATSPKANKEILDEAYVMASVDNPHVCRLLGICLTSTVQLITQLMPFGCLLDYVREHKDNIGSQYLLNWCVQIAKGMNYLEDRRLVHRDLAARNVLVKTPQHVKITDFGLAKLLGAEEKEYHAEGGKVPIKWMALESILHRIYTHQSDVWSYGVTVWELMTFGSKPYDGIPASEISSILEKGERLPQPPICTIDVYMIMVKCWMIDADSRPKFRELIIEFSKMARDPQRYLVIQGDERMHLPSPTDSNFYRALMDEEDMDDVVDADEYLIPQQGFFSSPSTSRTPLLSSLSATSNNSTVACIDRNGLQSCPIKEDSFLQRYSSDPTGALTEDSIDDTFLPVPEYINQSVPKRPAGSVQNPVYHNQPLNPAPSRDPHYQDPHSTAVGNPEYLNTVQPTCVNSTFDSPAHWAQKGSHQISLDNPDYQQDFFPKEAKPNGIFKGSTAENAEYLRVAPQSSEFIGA

What was measured:
[1] = target: EGFR kinase (Homo sapiens (Human), UniProt P00533); assay: EGFR Kinase Activity Assay (Time-Resolved fluorescence); format: biochemical; conditions: human-derived recombinant EGFR kinase, 20 μM ATP, 25° C., 45 minutes; read-out: IC50 (EGFR/BIO)
Experimental: The in vitro EGFR kinase activity was tested by the following assay.
The following assay may be used to determine the activity of the compounds of the invention for inhibiting EGFR kinase activity. […] EGFR kinase used in this assay is a human-derived recombinant protein (Cell signaling technology, #7908), which was reacted with peptide substrate and different concentrations of tested compounds in a buffer solution containing 60 mM HEPES (pH7.5), 5 mM MgCl2, 5 mM MnCl2, 3 μM Na3VO4, […] (1000×) and 20 μM ATP at 25° C., for 45 minutes. The EGFR kinase activity was determined by using a Time-Resolved fluorescence method.

[2] = tested on: human epidermoid carcinoma A431 cells; assay: EGFR Cell Proliferation Inhibition Assay (SRB method, 72 hours); format: cell-based; conditions: A-431, 72 h, read-out: IC50 (EGFR/A431)
Text: The activity is represented by the IC50 value. The general procedures of the assay are given as follows: The cancer cells A431 that highly expressing EGFR (Institute of biochemistry and cell biology) were chosen and seeded to 96-well cell culture plate at a suitable concentration (e.g., 5000 cells/mL medium). […] Then, the cell culture medium was replaced by fresh one with tested compounds added in it at serial concentrations (general 6 to 7 concentrations). Then the cells were put back to the incubator and cultured continuously. 72 hours later, the activity of the tested compounds for inhibiting the cell proliferation was determined by using Sulforhodamine B (SRB) method. IC50 value on tested cells are calculated by the data of inhibition rates of serial concentrations of the tested compounds.

[3] = Pharmacokinetics Assay in rats, intragastric administration, LC/MS/MS; format: in vivo; conditions: both sexes, rat, plasma, po, SD rats, 25 mg/kg, read-out: Mean Residence Time MRT
Text: The compounds of Example 1 and Example 5 of the present invention were administrated intragastrically to rats to determine the drug concentration in plasma at different time points by LC/MS/MS method. The pharmacokinetic behavior of the compounds of the present invention was studied and evaluated in rats. 8 healthy adult SD rats, male and female in half, were purchased from SINO-BRITSH SIPPR/BK LAB. ANIMAL LTD., CO, License number: SCXK (Shanghai) 2003-0002 The right amount of compounds were weighted and grinded with 0.5% Sodium Carboxymethyl cellulose uniformly, suspended them with 1% tween 80 to 2.5 mg/mL of suspension before use. […] 8 Healthy adult adult SD rats, male and female in half, were divided into 2 groups. After an overnight fast, the rats were administered intragastrically at a dose of 25.0 mg/kg. […] The plasma samples were stored at −20° C. until analysis. The rats were fed 2 hours after administration. 50 μL of rat plasmas taken at various time points after administration were mixed with 50 μL of standard series solution to obtain plasma concentration of 50.0, 100, 200, 500, 1000, 2000, 5000 ng/mL. 150 μL methanol was added and then the mixture was mixed for 3 minute using a vortexer and centrifuged for 10 minutes at 13,500 rpm. 10 μL of the supernatant was analyzed by LC-MS/MS. The main pharmacokinetic parameters were caculated by DAS 2.0 software.

Row | SMILES | IC50 [1] | IC50 [2] | MRT [3]
1 | CCOc1cc2ncc(C#N)c(Nc3ccc(OCc4ccccn4)c(Cl)c3)c2cc1NC(=O)/C=C/[C@@H]1CCCN1C [Example 1, (E)-N-[4-[[3-Chloro-4-(2-pyridylmethoxy)phenyl]amino]-3-cyano-7-ethoxy-6-quinolyl]-3-[(2S)-1-methylpyrrolidin-2-yl]prop-2-enamide] | 48 nM | 22 nM | –
2 | CCOc1cc2ncc(C#N)c(Nc3ccc(OCc4ccccn4)c(Cl)c3)c2cc1NC(=O)/C=C/[C@H]1CCCN1C [Example 5, (E)-N-[4-[[3-Chloro-4-(2-pyridylmethoxy)phenyl]amino]-3-cyano-7-ethoxy-6-quinolyl]-3-[(2R)-1-methylpyrrolidin-2-yl]prop-2-enamide] | 13 nM | 45 nM | 7.66 ± 0.75 h
